# Only a part is listed here, and it is no random draw. Some tests of the compounds listed are not included; inactive here does not mean inactive elsewhere. Active and inactive are the calls of the source.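 The calls were made as follows: active = inhibition above the screen-wide mean plus 3 SD, limit set per campaign (cut at about 26% in these data); inactive = the rest.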
# By UniProt entry, the sequences of proteins in these tests, tags left out.
# UniProt O95372, whole entry: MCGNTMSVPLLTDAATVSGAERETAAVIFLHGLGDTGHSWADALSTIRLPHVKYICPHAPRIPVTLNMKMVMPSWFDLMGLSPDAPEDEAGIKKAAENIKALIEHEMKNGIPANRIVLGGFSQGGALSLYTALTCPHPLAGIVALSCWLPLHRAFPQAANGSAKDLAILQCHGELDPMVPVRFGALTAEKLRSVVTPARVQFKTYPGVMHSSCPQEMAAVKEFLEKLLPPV
# Target: Acyl-protein thioesterase 2 (Homo sapiens) (UniProt O95372)
# Test: LYPLA2 inhibitors, primary screen, counter-screen for PME1 inhibitor project, biochemical, fluorescence polarization, FP-Rh probe ABPP (AID 2177);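 also: 0% = LYPLA2 with DMSO and 100% = wells lacking LYPLA2 enzyme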
# Settings: recombinant LYPLA2, FP-Rh probe fluorescence polarization; at 5.9 µM; active compounds read high
row,SMILES,inhibition
1,CN(C)C1(CNC(=O)c2ccc(Br)cc2)CCCCC1,inactive: 5.46%
2,COc1cc(C(=O)NCC2(N(C)C)CCCCC2)c([N+](=O)[O-])cc1OC,inactive: 0.87%
3,COc1cccc(C(=O)NCC2(N3CCCCC3)CCCCC2)c1,inactive: 6.3%
4,COc1ccc(Cl)cc1C(=O)NCC1(N(C)C)CCCCC1,inactive: 1.55%
5,O=C(NCC1(N2CCCCC2)CCCCC1)c1cccc(Cl)c1,inactive: -7.26%
6,O=C(OC1CN2CCC1CC2)C(CO)(c1ccccc1)c1ccccc1 (centres undefined),inactive: -3.76%
7,COc1ccc(Br)c(C(=O)NCC2(N3CCCCC3)CCCCC2)c1,inactive: 2.84%
8,CC(C)Oc1ccc(C(=O)NCC2(N(C)C)CCCCC2)cc1,inactive: 0.85%
9,CN(C)c1cccc(C(=O)NCC2(N(C)C)CCCCC2)c1,inactive: 4.6%
10,O=C(NCC1(N2CCCCC2)CCCCC1)c1cc([N+](=O)[O-])ccc1Cl,inactive: 2.3%
11,CN1[C@@H]2CC[C@H]1CC(OC(=O)C(O)(c1ccccc1)c1ccccc1)C2 (some centres undefined),inactive: -2.49%
12,CCN(CC)CC(C)C(C)OC(=O)C(O)(c1ccccc1)c1ccccc1 (centres undefined),inactive: 4.55%
13,COc1cc(SC)ccc1C(=O)NCC1(N(C)C)CCCCC1,inactive: 2.83%
14,CC(C)N1C(=O)CC2(CCN(CCOC(=O)C(O)(c3ccccc3)c3ccccc3)CC2)C1=O,inactive: -2.52%
15,Cc1ccc(C(=O)NCC2(N3CCCCC3)CCCCC2)cc1,inactive: -0.54%
16,Cc1ccccc1C(=O)NCC1(N2CCCCC2)CCCCC1,inactive: -1.98%
17,CN(C)C1CCCC1OC(=O)C(O)(c1ccccc1)c1ccccc1 (centres undefined),inactive: 6.46%
18,CN(C)c1ccc(C(=O)NCC2(N(C)C)CCCCC2)cc1,inactive: 5.46%
19,C=CCN1CCN(CCOC(=O)C(O)(c2ccccc2)c2ccccc2)CC1,inactive: 5.09%
20,O=C(NCC1(N2CCCCC2)CCCCC1)c1cc(F)c(F)cc1Cl,inactive: 3.08%
21,COc1ccc(C(=O)NCC2(N(C)C)CCCCC2)cc1,inactive: 2.1%
22,Cc1cc(C(=O)NCC2(N3CCCCC3)CCCCC2)ccc1[N+](=O)[O-],inactive: -5.42%
23,CCN1CCCC(OC(=O)C2(O)c3ccccc3C=Cc3ccccc32)C1 (centres undefined),inactive: -9.25%
24,O=C(NCC1(N2CCCCC2)CCCCC1)c1cccc(Br)c1,inactive: -3.63%

# Source: PubChem BioAssay AID2177 (The Scripps Research Institute Molecular Screening Center, 2009)
